Columns and labels:
[1] = target: PDE4D2 (Homo sapiens, UniProt Q08499); test: Effect of compounds on PDE4D2 activity (fluorescence polarization kit); details: read-out: PDE4D2 IC50; class symbols
Procedure: The effect of compounds on PDE4D2 activity was detected by a fluorescence polarization kit (BPS Bioscience, Catalog #60345). During the reaction, 12.5 μL of 0.272 ng/well of an enzyme (final concentration: 0.068 ng/well) and 12.5 μL of the compound diluted in a gradient manner (DMSO concentration: 4%) were first pre-incubated at room temperature for 15 minutes, the same volume of the enzyme at the same concentration and 12.5 μL of PDE buffer containing 4% DMSO were added to the positive control well, and 25 μL of PDE buffer containing 2% DMSO was added to the negative control well. After completion, 25 μL of […] FAM-Cyclic-3′,5′-AMP (final concentration: […]) was added to each well, fully mixed, and then incubated at room temperature with slow shaking for 30 minutes. […]
After the incubation was complete, BMG LRBTECH microplate reader was used for FP detection, with Excitation at 485 nm and Emission at 520 nm. […]
[formula] • I∥ (S520): fluorescence intensity in parallel direction • I⊥ (P520): fluorescence intensity in perpendicular direction • G: G factor=1 […]
(§1) According to the calculated inhibition rate at each concentration, the IC50 value of each compound was calculated by GraphPad Prism 8 software.

The chains behind the UniProt entries cited, without tags or fusion partners. Residues count along the entry.
UniProt Q08499, 303-809 limits assumed: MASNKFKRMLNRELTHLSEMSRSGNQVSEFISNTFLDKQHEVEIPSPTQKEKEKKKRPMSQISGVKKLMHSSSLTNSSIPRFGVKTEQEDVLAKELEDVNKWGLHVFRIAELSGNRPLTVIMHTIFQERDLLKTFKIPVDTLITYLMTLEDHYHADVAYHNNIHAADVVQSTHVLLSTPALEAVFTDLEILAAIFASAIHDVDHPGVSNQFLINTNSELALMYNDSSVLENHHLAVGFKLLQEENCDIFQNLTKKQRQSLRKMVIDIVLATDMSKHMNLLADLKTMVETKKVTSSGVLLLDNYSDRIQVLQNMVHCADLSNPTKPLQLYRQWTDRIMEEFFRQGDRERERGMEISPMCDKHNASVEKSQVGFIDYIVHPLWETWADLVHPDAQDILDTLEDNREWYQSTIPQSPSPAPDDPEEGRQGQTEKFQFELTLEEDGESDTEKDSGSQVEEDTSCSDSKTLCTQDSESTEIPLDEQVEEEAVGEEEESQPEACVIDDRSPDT
UniProt Q07343, whole entry: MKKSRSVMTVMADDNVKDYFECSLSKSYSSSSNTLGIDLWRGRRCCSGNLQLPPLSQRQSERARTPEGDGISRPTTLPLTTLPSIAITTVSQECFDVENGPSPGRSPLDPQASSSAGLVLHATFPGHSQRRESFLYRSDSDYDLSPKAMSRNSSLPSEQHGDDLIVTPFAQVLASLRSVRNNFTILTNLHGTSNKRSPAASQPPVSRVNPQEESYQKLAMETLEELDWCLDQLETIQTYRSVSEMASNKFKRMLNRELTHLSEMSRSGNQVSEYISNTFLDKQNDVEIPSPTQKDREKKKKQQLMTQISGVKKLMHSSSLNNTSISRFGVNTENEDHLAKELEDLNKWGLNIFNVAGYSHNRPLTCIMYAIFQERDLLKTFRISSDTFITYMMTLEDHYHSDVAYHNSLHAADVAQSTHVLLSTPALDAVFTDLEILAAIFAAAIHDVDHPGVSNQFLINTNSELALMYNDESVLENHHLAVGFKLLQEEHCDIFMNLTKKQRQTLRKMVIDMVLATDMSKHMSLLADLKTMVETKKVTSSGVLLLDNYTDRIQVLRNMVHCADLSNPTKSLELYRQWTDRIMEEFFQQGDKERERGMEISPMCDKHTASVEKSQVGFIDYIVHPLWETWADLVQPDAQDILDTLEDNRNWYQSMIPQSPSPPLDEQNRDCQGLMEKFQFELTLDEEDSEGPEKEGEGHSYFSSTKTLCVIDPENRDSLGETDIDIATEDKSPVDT
UniProt Q07343, 1-564 isoform 2: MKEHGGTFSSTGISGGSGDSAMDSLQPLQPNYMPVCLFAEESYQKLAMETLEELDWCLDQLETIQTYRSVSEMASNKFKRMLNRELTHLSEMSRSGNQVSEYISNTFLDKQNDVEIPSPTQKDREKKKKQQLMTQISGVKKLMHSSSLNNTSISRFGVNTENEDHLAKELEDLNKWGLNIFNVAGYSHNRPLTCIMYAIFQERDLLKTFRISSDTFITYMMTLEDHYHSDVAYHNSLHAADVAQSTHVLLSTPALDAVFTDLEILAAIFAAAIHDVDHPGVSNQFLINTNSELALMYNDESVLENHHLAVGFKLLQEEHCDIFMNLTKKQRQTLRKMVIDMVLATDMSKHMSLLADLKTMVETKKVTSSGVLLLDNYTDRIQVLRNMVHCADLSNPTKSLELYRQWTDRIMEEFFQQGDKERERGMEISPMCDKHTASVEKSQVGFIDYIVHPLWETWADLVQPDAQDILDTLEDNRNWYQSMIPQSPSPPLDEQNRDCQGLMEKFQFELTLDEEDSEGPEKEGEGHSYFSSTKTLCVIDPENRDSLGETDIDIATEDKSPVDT

[2] = target: PDE4B1 (Homo sapiens, UniProt Q07343); test: Effect of compounds on PDE4B1 activity (IMAP fluorescence polarization kit); details: read-out: PDE4B1 IC50; class symbols
[3] = target: PDE4B2 (Homo sapiens, UniProt Q07343); test: Effect of compounds on PDE4B2 activity (fluorescence polarization kit); details: read-out: PDE4B2 IC50; class symbols
Procedure: The effect of compounds on PDE4B2 activity was detected by a fluorescence polarization kit (BPS Bioscience, Catalog #60343). According to the instructions of the kit, FAM-Cyclic-3′,5′-AMP at a final concentration of […], 1 ng/well of PDE4B2 (PDE buffer was added to the negative control well), and a compound diluted in a gradient manner (PDE buffer containing 10% DMSO was added to the positive control well) were added to each well, fully mixed, and then reacted at room temperature for 1 h. The Binding Agent was diluted with the Binding Agent Diluent (cAMP) at a ratio of 1:100 for later use, the Binding Agent dilution was taken and added to the test plate at 50 μl/well and incubated at room temperature with slow shaking for 20 minutes. After the incubation was complete, Envision was used for FP detection, with Excitation at 480 nm and Emission at 535 nm. FP was usually represented by mP value.
[formula] • I∥ (S535): fluorescence intensity in parallel direction • I⊥ (P535): fluorescence intensity in perpendicular direction • G: G factor=1
[formula] • mP(sample): mP of the test compound in a reaction well • mP(negative control): mP in the negative control well • mP(positive control): mP in the positive control well
as §1

IC50 [1]	IC50 [2]	IC50 [3]	Structure (SMILES)
< 10 nM	< 10 nM		[O-][S@+]1CCc2nc(N3CC4C=C(c5ccc(Cl)cc5)CC4C3)nc(NC3(CO)CCC3)c21 (single isomer, unassigned)
< 10 nM		10 to 50 nM	[O-][S@+]1CCc2nc(N3C[C@H]4CC(c5ccc(Cl)cc5)C[C@H]4C3)nc(NC3(CO)CCC3)c21 (single isomer, unassigned)

From patent US20250326765A1, “PDE4B INHIBITOR AND USE THEREOF” (XIZANG HAISCO PHARMACEUTICAL CO., LTD., priority 2022, published 2025)
